pKd: −log10 of the molar value.
Target: 5-hydroxytryptamine receptor 3A/3B (Mus musculus, UniProt P23979+Q9JHJ5)
Assay: Binding affinity towards 5-hydroxytryptamine 3 receptor was determined by using [3H]-ICS 205-930 as radioligand in mouse N1E 115 cells

Amino acid sequences for entries named in this document (tags omitted). A change or cut given only in a name is not applied to a line headed by its entry. Chains listed by the source or under a name are the forms on record and can include a tag or linker.
UniProt P23979, as listed by the source: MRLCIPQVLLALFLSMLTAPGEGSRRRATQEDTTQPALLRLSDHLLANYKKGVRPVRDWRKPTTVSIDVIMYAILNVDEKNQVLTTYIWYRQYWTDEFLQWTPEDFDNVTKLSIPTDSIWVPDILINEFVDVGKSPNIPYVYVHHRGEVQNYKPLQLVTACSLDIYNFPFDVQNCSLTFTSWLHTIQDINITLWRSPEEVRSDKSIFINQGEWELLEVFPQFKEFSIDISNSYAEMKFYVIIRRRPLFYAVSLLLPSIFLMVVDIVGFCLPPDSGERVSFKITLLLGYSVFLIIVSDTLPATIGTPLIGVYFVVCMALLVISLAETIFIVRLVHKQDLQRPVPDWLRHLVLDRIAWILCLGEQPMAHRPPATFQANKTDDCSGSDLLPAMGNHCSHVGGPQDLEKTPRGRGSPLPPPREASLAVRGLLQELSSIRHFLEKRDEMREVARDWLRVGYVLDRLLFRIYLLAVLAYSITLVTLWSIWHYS
UniProt Q9JHJ5: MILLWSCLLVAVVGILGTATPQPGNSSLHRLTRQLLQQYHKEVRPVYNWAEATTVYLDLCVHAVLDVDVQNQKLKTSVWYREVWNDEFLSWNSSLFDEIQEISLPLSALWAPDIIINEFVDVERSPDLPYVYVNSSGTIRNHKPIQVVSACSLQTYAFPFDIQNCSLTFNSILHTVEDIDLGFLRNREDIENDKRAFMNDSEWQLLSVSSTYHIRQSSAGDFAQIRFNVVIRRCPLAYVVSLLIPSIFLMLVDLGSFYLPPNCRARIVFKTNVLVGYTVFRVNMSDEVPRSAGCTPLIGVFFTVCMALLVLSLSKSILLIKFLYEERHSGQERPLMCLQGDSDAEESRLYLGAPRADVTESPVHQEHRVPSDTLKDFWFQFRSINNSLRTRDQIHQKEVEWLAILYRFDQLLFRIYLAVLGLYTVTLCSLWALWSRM

- pKd: 8.49
Structure (SMILES): COc1cc(N)c(Cl)cc1C(=O)N[C@H]1CCN2CCC[C@@H]1C2
